# OPERA 2.9 data: properties

Values as listed in the OPERA 2.9 repository of K. Mansouri.

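These are experimental values that the OPERA curators gathered from public databases to train and test their QSAR models. A listed value is a point estimate from one report or more. Method, purity and exact conditions of the single measurements are not given. The measured form (salt, isomer or mixture) is not always the one drawn. Some entries may be limits or estimates that an upstream database listed as plain numbers.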

The melting point is given in degrees Celsius.
logP is the log10 of the octanol-water partition coefficient; higher is more lipophilic.
Solubility in water is on a log10 molar scale (set defined at 25 °C).
Vapor pressure is log10 of mmHg; the set covers 15 to 30 °C, mostly 20 to 25 °C.
Henry's law constant (air-water partitioning) is log10 of atm·m3/mol, nominally at 25 °C.
fu is the fraction unbound in human plasma, from 0 to 1.
Clint is human hepatic intrinsic clearance in µL/min per million cells; 0 means that no clearance was seen.
"n/a" marks a cell with nothing listed here.

For O=C(O)c1cc(C(=O)O)cc(C(=O)O)c1 [1,3,5-Benzenetricarboxylic acid] the data give MP 370.8 °C and log Kow 1.35 and vapor pressure -14.96 (log10 mmHg). Listed for CC1=CC(=O)CC(C)(C)C1=O [2,6,6-Trimethyl-2-cyclohexene-1,4-dione]: log Kow 1.12 and vapor pressure -1.173 (log10 mmHg). For O=C(Oc1cccc2cccc(OC(=O)c3ccccc3)c12)c1ccccc1 [1,8-Naphthylene dibenzoate] the data give MP 179 °C and log Kow 4.1 and log solubility -7.265 (log10 mol/L). Listed for Cc1ncc(C[n+]2csc(CCOP(=O)([O-])OP(=O)(O)O)c2C)c(N)n1 [Thiamine pyrophosphate]: log Kow -4.9 and vapor pressure -9.319 (log10 mmHg). OCc1cc(C(O)CNCCCCCCOCCCCc2ccccc2)ccc1O (configuration not stated) [Salmeterol] has MP 76 °C and log Kow 4.2 and log solubility -5.265 (log10 mol/L) and plasma fu 0.05142. CCCCC(CC)COC(=O)c1ccccc1 (configuration not stated) [2-Ethylhexyl benzoate] has MP -98 °C and log Kow 6.21 and vapor pressure -0.557 (log10 mmHg). CCCn1c(=O)[nH]c(=O)c2[nH]cnc21 [Enprofylline] has log solubility -1.534 (log10 mol/L) and plasma fu 0.4253.

Cc1ccc(S(=O)(=O)Cl)cc1 [p-Toluenesulfonyl chloride] has log Kow 3.49 and vapor pressure -2.966 (log10 mmHg). CCN(CC)c1ccc(N=Nc2ccc([N+](=O)[O-])cc2)cc1 [N,N-Diethyl-4-[(4-nitrophenyl)diazenyl]aniline] has log solubility -10.4 (log10 mol/L) and vapor pressure -10.1 (log10 mmHg). For COC(=O)c1cc(S(N)(=O)=O)ccc1S(=O)(=O)CCCO [Methyl 2-(3-hydroxypropylsulfonyl)-5-sulfamoylbenzoate] the data give log Kow -0.3 and log solubility -1.382 (log10 mol/L). O=C(O)CCCCCCCCCCCC(=O)O [Tridecanedioic acid] is reported with log Kow 3.3 and vapor pressure -9.147 (log10 mmHg). For CC(C)(C)c1cc(CCC(=O)OCC(COC(=O)CCc2cc(C(C)(C)C)c(O)c(C(C)(C)C)c2)(COC(=O)CCc2cc(C(C)(C)C)c(O)c(C(C)(C)C)c2)COC(=O)CCc2cc(C(C)(C)C)c(O)c(C(C)(C)C)c2)cc(C(C)(C)C)c1O [Irganox 1010] the data give log Kow 1.36 and vapor pressure -12 (log10 mmHg). Listed for O=C(NC(=O)c1c(F)cccc1F)Nc1cc(C(F)(F)F)cc(C(F)(F)F)c1Cl [Bistrifluron]: log solubility -7.17 (log10 mol/L) and vapor pressure -7.693 (log10 mmHg) and Henry's law constant -6.404 (log10 atm·m3/mol). The entry for COC(=O)CN(CC(=O)OC)c1cc(NC(C)=O)c(/N=N/c2c(Br)cc([N+](=O)[O-])cc2[N+](=O)[O-])cc1OC lists log Kow 4.5 and log solubility -6.664 (log10 mol/L) and vapor pressure -7.054 (log10 mmHg).

The entry for O=C(Oc1ccccc1)c1ccc(O)cc1 [Phenylparaben] lists plasma fu 0.045 and hepatic Clint 865 µL/min/10^6 cells. CC(CCO)CCCC(C)(C)O (configuration not stated) [3,7-Dimethyloctane-1,7-diol] has log Kow 1.59 and vapor pressure -3.986 (log10 mmHg). Clc1c(Cl)c(Cl)c(Oc2c(Cl)c(Cl)c(Cl)c(Cl)c2Cl)c(Cl)c1Cl [Decachlorodiphenyl ether] has MP 221 °C and log solubility -12.95 (log10 mol/L). Cc1cc(C)c(Cl)c(O)c1 [Phenol, 2-chloro-3,5-dimethyl-] has MP 116 °C and log Kow 2.8 and log solubility -2.718 (log10 mol/L).

The last 2 entries again:

compound	name	MP (°C)	log Kow	log solubility (log10 mol/L)	vapor pressure (log10 mmHg)	Henry's law constant (log10 atm·m3/mol)	plasma fu	hepatic Clint (µL/min/10^6 cells)
Clc1c(Cl)c(Cl)c(Oc2c(Cl)c(Cl)c(Cl)c(Cl)c2Cl)c(Cl)c1Cl	Decachlorodiphenyl ether	221	n/a	-12.95	n/a	n/a	n/a	n/a
Cc1cc(C)c(Cl)c(O)c1	Phenol, 2-chloro-3,5-dimethyl-	116	2.8	-2.718	n/a	n/a	n/a	n/a